Legend:
Settings in all cases: dose 1000.0 nM
[1] = target: Serine/threonine-protein kinase TBK1 (Homo sapiens) (UniProt Q9UHD2)
[2] = target: ALK tyrosine kinase receptor (Homo sapiens) (UniProt Q9UM73)
[3] = target: Serine/threonine-protein kinase mTOR (Homo sapiens) (UniProt P42345)
[4] = target: Tyrosine-protein kinase BTK (Homo sapiens) (UniProt Q06187)
[5] = target: Cyclin-dependent kinase 2 (Homo sapiens) (UniProt P24941)
[6] = target: Serine/threonine-protein kinase B-raf (Homo sapiens) (UniProt P15056)
[7] = target: Serine/threonine-protein kinase pim-1 (Homo sapiens) (UniProt P11309)
[8] = target: Tyrosine-protein kinase SYK (Homo sapiens) (UniProt P43405)
[9] = target: Tyrosine-protein kinase JAK2 (Homo sapiens) (UniProt O60674)
[10] = target: Serine/threonine-protein kinase Sgk1 (Homo sapiens) (UniProt O00141)
[11] = target: Dual specificity protein kinase CLK2 (Homo sapiens) (UniProt P49760)
[12] = target: Focal adhesion kinase 1 (Homo sapiens) (UniProt Q05397)
[13] = target: Serine/threonine-protein kinase PAK 4 (Homo sapiens) (UniProt O96013)
[14] = target: Serine/threonine-protein kinase PAK 1 (Homo sapiens) (UniProt Q13153)
[15] = target: Mitogen-activated protein kinase kinase kinase 20 (Homo sapiens) (UniProt Q9NYL2)
[16] = target: Aurora kinase A (Homo sapiens) (UniProt O14965)
[17] = target: Tyrosine-protein kinase Fyn (Homo sapiens) (UniProt P06241)
[18] = target: Epidermal growth factor receptor (Homo sapiens) (UniProt P00533)
[19] = target: Homeodomain-interacting protein kinase 2 (Homo sapiens) (UniProt Q9H2X6)
[20] = target: Angiopoietin-1 receptor (Homo sapiens) (UniProt Q02763)
[21] = target: Cytoplasmic tyrosine-protein kinase BMX (Homo sapiens) (UniProt P51813)
[22] = target: Proto-oncogene tyrosine-protein kinase ROS (Homo sapiens) (UniProt P08922)
[23] = target: Calcium/calmodulin-dependent protein kinase type II subunit alpha (Homo sapiens) (UniProt Q9UQM7)
[24] = target: Hepatocyte growth factor receptor (Homo sapiens) (UniProt P08581)
[25] = target: Tyrosine-protein kinase receptor UFO (Homo sapiens) (UniProt P30530)
[26] = target: RAC-alpha serine/threonine-protein kinase (Homo sapiens) (UniProt P31749)
[27] = target: Serine/threonine-protein kinase PLK1 (Homo sapiens) (UniProt P53350)
[28] = target: Tyrosine-protein kinase JAK1 (Homo sapiens) (UniProt P23458)
[29] = target: RAF proto-oncogene serine/threonine-protein kinase (Homo sapiens) (UniProt P04049)
[30] = target: cAMP-dependent protein kinase (PKA) (Homo sapiens) (UniProt P22694+P17612+P22612)
[31] = target: Vascular endothelial growth factor receptor 1 (Homo sapiens) (UniProt P17948)
[32] = target: Serine/threonine-protein kinase Chk1 (Homo sapiens) (UniProt O14757)
[33] = target: Tyrosine-protein kinase Fes/Fps (Homo sapiens) (UniProt P07332)
[34] = target: Mitogen-activated protein kinase 3 (Homo sapiens) (UniProt P27361)
[35] = target: Homeodomain-interacting protein kinase 1 (Homo sapiens) (UniProt Q86Z02)
[36] = target: Inhibitor of nuclear factor kappa-B kinase subunit beta (Homo sapiens) (UniProt O14920)
[37] = target: Insulin-like growth factor 1 receptor (Homo sapiens) (UniProt P08069)

Chains of the proteins cited; added tags and fusions are not shown. Lines headed by an entry give the natural chain unless they say otherwise; changes in a name come on top.
UniProt Q06187: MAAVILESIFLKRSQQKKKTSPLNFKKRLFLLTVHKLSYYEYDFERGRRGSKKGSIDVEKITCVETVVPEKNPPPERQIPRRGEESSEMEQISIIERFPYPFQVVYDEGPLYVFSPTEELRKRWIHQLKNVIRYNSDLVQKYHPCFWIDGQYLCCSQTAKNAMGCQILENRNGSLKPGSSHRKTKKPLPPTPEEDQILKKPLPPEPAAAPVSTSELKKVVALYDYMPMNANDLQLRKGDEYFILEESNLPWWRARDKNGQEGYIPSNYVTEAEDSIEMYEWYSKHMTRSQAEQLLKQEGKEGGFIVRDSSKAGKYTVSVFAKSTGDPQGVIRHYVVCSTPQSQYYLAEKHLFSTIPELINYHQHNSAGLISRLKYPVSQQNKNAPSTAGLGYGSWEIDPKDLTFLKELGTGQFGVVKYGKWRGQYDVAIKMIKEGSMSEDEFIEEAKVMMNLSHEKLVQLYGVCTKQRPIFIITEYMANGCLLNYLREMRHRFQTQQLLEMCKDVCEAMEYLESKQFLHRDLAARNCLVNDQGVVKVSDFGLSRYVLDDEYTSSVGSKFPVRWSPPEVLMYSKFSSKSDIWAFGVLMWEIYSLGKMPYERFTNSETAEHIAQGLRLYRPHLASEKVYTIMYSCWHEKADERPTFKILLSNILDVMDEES
UniProt O60674: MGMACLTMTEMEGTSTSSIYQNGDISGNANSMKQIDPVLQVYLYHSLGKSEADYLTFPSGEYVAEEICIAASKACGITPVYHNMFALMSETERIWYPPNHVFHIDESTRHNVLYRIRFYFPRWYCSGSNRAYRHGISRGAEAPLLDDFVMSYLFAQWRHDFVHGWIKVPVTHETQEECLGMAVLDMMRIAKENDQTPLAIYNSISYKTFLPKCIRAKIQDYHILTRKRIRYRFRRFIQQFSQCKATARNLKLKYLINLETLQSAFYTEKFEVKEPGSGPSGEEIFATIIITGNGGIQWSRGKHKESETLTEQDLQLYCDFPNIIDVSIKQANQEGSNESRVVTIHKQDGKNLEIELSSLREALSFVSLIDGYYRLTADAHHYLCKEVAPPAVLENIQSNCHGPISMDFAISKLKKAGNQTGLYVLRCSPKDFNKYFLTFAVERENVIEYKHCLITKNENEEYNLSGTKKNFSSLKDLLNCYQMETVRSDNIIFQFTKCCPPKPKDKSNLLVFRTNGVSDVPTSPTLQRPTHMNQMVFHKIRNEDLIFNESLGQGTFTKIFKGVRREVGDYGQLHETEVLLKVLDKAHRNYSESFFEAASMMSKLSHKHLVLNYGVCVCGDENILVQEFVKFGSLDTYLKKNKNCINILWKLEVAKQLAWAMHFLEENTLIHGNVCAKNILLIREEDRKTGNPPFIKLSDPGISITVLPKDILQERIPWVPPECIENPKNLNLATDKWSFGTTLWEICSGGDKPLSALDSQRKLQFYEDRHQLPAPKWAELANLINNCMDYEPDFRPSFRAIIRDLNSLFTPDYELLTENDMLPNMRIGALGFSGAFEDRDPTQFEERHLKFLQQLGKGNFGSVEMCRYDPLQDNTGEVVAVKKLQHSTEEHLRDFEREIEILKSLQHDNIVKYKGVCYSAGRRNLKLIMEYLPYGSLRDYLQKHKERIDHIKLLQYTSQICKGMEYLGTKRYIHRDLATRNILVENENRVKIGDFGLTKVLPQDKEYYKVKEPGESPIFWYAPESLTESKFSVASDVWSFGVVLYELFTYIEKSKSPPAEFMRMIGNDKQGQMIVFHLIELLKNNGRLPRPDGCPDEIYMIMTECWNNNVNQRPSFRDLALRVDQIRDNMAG
UniProt P08922: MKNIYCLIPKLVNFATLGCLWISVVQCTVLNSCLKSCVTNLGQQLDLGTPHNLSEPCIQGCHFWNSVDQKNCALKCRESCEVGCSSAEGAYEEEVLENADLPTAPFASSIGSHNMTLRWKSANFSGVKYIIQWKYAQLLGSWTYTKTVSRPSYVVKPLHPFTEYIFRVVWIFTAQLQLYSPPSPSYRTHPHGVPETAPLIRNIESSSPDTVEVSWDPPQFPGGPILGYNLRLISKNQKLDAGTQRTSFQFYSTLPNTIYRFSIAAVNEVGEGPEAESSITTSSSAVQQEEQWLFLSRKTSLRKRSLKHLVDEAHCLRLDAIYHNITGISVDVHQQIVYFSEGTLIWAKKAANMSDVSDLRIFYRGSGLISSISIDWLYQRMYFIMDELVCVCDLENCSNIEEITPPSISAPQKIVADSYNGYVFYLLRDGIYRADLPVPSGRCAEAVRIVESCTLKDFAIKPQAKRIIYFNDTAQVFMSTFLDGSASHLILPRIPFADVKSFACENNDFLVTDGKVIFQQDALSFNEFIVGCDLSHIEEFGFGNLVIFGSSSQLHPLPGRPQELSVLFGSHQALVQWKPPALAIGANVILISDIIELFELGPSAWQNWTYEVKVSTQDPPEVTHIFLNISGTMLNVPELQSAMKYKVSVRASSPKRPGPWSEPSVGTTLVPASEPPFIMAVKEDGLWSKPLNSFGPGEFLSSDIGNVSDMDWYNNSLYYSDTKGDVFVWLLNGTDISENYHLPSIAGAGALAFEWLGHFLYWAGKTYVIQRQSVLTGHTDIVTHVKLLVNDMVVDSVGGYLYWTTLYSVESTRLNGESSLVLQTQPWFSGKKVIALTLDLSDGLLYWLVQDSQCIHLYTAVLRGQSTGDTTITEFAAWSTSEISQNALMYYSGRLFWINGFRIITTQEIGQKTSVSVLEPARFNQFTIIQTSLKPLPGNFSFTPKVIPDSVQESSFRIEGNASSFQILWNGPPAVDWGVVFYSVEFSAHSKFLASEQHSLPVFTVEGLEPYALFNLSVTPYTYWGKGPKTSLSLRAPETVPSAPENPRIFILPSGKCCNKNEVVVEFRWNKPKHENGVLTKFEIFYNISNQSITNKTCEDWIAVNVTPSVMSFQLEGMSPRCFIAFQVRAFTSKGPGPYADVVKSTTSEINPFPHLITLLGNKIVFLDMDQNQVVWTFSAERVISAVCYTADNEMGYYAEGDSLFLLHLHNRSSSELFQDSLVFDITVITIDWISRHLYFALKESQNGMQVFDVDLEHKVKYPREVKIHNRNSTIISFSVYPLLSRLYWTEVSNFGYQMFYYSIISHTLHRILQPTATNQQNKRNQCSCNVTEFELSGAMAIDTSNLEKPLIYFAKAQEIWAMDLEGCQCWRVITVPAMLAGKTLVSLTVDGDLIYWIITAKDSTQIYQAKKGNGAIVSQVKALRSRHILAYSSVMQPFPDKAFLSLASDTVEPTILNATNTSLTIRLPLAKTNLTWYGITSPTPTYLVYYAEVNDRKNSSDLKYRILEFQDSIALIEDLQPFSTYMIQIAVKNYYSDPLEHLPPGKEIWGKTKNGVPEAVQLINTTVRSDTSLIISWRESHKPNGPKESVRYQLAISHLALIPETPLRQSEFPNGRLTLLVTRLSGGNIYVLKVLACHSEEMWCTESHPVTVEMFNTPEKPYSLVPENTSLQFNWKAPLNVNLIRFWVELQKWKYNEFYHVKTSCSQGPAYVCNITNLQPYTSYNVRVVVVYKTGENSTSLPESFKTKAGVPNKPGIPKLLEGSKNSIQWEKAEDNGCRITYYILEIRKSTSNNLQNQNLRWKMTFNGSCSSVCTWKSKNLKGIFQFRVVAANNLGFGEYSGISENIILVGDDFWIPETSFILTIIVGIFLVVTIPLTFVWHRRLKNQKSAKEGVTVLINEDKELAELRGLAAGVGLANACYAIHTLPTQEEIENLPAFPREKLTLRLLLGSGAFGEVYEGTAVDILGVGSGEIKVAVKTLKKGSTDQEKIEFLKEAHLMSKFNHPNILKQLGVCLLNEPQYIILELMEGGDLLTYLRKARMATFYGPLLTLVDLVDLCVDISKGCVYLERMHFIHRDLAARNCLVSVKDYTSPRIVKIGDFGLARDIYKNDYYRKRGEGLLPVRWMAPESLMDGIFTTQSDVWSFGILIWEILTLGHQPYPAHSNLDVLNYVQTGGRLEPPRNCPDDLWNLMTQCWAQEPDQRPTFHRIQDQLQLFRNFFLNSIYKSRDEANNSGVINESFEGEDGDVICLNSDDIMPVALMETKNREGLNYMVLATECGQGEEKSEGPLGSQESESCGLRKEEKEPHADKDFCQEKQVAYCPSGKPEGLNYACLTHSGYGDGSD
UniProt P27361, whole entry: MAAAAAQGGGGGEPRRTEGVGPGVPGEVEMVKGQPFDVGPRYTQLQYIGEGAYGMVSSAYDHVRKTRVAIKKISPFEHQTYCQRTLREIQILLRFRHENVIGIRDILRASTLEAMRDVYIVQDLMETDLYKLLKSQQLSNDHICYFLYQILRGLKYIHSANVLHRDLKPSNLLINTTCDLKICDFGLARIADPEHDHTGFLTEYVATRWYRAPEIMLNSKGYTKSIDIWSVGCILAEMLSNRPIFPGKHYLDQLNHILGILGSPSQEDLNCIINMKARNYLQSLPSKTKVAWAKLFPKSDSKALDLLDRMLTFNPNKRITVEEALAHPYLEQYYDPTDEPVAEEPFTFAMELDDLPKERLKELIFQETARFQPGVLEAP
UniProt Q86Z02: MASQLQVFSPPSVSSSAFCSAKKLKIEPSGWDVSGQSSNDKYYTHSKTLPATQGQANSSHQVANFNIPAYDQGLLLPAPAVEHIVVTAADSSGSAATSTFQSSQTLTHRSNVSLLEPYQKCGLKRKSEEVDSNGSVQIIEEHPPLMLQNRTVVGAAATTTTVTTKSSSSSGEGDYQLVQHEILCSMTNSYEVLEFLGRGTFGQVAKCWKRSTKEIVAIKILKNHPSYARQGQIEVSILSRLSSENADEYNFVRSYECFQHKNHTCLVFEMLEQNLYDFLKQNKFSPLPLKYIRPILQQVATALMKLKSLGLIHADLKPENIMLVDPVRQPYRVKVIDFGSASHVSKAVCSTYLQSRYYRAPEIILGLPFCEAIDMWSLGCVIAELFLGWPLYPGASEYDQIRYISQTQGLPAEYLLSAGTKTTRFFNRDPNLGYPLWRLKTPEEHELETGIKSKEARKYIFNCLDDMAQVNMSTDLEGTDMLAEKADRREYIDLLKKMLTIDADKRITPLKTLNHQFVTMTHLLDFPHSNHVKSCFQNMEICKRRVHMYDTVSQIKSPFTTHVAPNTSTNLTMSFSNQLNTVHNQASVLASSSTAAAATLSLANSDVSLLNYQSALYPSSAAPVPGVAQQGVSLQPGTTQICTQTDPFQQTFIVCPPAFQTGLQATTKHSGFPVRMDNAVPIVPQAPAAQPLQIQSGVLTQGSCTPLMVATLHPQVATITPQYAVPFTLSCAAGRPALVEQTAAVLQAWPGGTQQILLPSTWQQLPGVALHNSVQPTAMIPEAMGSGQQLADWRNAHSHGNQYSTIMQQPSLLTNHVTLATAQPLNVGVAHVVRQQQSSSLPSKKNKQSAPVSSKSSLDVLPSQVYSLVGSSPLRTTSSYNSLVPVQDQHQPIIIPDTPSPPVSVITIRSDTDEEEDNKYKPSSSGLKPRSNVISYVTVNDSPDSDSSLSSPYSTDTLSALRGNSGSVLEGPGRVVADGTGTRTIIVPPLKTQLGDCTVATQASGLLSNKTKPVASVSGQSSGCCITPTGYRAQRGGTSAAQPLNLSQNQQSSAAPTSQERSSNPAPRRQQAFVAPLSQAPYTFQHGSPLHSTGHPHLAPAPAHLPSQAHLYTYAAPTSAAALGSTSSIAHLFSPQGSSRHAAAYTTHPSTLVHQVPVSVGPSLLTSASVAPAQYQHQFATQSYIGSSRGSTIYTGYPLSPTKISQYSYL
UniProt O14920: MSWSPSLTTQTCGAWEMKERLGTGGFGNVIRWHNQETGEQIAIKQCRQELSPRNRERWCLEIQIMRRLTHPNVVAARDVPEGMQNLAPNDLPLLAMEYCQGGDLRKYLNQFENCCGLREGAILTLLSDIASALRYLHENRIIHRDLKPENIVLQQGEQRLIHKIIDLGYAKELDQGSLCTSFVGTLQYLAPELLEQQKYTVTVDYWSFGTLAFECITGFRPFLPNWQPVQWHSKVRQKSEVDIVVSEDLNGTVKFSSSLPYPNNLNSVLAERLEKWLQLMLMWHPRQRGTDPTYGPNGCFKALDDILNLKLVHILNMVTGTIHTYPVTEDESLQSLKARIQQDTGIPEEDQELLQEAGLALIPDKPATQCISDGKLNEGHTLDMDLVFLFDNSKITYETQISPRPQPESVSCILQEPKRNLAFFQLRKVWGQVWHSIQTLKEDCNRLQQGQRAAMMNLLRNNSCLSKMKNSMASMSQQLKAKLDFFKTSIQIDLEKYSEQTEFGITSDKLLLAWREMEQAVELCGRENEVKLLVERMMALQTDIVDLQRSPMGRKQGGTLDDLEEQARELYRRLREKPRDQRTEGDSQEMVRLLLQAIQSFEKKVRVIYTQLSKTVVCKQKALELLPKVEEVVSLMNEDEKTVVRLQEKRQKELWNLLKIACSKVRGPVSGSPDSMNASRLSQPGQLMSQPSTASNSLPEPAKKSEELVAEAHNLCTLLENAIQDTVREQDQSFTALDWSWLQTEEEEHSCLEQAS

inhibition [1]: < 40% | inhibition [2]: < 40% | inhibition [3]: < 40% | inhibition [4]: 50% | inhibition [5]: < 40% | inhibition [6]: < 40% | inhibition [7]: < 40% | inhibition [8]: < 40% | inhibition [9]: < 40% | inhibition [10]: < 40% | inhibition [11]: < 40% | inhibition [12]: < 40% | inhibition [13]: < 40% | inhibition [14]: < 40% | inhibition [15]: 50% | inhibition [16]: < 40% | inhibition [17]: 50% | inhibition [18]: < 40% | inhibition [19]: < 40% | inhibition [20]: 50% | inhibition [21]: < 40% | inhibition [22]: < 40% | inhibition [23]: < 40% | inhibition [24]: < 40% | inhibition [25]: < 40% | inhibition [26]: < 40% | inhibition [27]: < 40% | inhibition [28]: < 40% | inhibition [29]: < 40% | inhibition [30]: < 40% | inhibition [31]: 50% | inhibition [32]: < 40% | inhibition [33]: < 40% | inhibition [34]: < 40% | inhibition [35]: < 40% | inhibition [36]: < 40% | inhibition [37]: < 40%
Structure (SMILES): CC(C)(C)c1cc(NC(=O)Nc2cccc(Nc3ccc4c(-c5cn[nH]c5)n[nH]c4c3)c2)n(-c2cc(F)cc(F)c2)n1

Reference: ChEMBL document CHEMBL5537129, “Discovery of novel 3-(1H-pyrazol-4-yl)-1H-indazole derivatives as potent type II TRK inhibitors against acquired resistance” (Eur J Med Chem, 2024)
